Paper PMC3411647 (PLoS ONE, 2012)

Protein sequences, listed by entry. Tags and fused reporters are not part of them. Lines headed by an entry give the natural chain unless they say otherwise; changes in a name come on top.
UniProt Q9QYN8: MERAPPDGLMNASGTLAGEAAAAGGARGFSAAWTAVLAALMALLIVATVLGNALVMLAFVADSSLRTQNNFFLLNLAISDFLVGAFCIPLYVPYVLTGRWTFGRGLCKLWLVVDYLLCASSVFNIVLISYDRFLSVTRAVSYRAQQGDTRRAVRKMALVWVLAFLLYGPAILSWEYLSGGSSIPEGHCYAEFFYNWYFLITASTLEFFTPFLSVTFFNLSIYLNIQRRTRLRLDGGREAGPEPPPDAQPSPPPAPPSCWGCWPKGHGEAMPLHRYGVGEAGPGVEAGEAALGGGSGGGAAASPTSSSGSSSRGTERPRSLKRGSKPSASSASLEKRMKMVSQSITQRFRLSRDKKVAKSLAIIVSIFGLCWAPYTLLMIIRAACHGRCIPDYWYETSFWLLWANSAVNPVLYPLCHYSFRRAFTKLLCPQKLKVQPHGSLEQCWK

Target: T1, rat brain H3R (Rattus norvegicus, UniProt Q9QYN8)
T1 construct: from tissue; host or cells: rat cerebral cortex membranes
Experiment: Competitive/saturation binding with [3H]N-α-methylhistamine, rat cerebral cortex membranes
Procedure: Figure 4 Competition binding experiments with [^3H]-N-α-methylhistamine. […] The presented data are the means ±SE of values from a single experiment performed in duplicate and are representative of three to six separate experiments.
The membranes (50 µg of protein) were incubated with [^3H] N-α-methylhistamine at various concentrations (from 0.03 nM to 50 nM) for saturation binding assays. For competitive binding assays, the membranes (50 µg of protein) were incubated with 10 nM [^3H] N-α-methylhistamine for recombinant hH3R or 2nM [^3H] N-α-methylhistamine for rat brain H3R in the presence of various compound concentrations in the buffer (50 mM Tris–HCl, pH 7.4). […] Following three washes, the membrane-bound radioactivity was measured on a Topcount (PerkinElmer) at 20°C. […] IC50 values were converted to Ki values using the Cheng-Prusoff equation. Each experiment was performed in duplicate and repeated three to six times. All data were analyzed by nonline arregression using GraphPad Prism version 4.0 software.

- Ki: 110 ± 20 pM
SMILES: N=C(N)SCCc1cnc[nH]1 [imetit, S-[2-(4-imidazolyl)ethyl]isothiourea]
